Sequences of proteins named here, by UniProt entry; tags and fusion partners are left off.
UniProt P21397, whole entry: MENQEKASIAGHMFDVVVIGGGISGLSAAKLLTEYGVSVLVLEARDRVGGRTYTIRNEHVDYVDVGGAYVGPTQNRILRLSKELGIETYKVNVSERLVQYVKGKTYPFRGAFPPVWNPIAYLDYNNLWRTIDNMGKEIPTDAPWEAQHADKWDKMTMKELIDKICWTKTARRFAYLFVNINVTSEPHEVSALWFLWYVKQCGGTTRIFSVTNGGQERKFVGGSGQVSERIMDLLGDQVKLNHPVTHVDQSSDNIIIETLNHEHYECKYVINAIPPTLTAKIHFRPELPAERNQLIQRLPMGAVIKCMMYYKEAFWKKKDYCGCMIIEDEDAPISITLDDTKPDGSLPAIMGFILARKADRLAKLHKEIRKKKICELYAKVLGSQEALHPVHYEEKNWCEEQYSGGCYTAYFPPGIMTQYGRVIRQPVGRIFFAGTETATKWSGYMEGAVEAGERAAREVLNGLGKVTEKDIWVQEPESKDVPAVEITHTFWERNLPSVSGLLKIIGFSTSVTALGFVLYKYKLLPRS

According to patent US9643930B2, “Substituted indazole derivatives as in vitro MAO-B inhibitors” (“NTZ LAB” LTD., priority 2013, dated 2017):

Target: human MAO-A (Homo sapiens, UniProt P21397)
Assay: Human MAO-A assay (recombinant enzyme, Amplex Red fluorescence)

SMILES: Cn1ncc2cc(C(=O)Nc3ccc(F)c(Cl)c3)ccc21 [Example 17, N-(3-chloro-4-fluorophenyl)-1-methyl-1H-indazole-5-carboxamide]
- IC50: > 10 µM
- inhibition at 10 µM (read-out: human MAO-A % inhibition at 10 μM): 53%
